The values that follow are results of earlier work, collected in publication PMC3953223 (Biochemistry, 2013).

Each structure is given as a SMILES string.

For this series, the target named is PfENR. Conditions: read-out: overall inhibition constant; cited from earlier work.

In the case of `Oc1cc(Cl)ccc1Oc1ccc(Cl)cc1Cl` [Triclosan, triclosan], the Ki was 0.096 nM.
